Data published in patent publication US10624891B2, “Method of diagnosing and treating skin necroptosis disease comprising RIP3-MLKL pathway blocker” (Ajou University Industry-Academic Cooperation Foundation, priority 2015, dated 2020).

Tests used:
HEKn cells = test: Necroptosis inhibition: protection of HEKn cells from SNP cytotoxicity
[1] = system: HaCaT and HEKn cells expressing RIP3; test: SNP treatment of HaCaT and HEKn cells, MTT assay and western blotting

zVAD
protection from acute SNP cytotoxicity / SNP-induced cell death (HEKn cells): inhibited partially
caspase-3 and PARP cleavage induced by TNF/CHX and SNP [1]: completely blocked
SNP-induced cell death ([1]; pan-caspase inhibitor zVAD): did not significantly affect
